The values that follow come from paper PMC3468530 (PLoS ONE, 2012).

Where two headings read alike, the source gives them in different places.

In data set [1] the target is T1, SisLac (Saccharolobus islandicus, UniProt C4KKZ9).
T1 construct: gene M164_0332

Data set [2] addresses T1, SisLac. This is another data set of the same source.
A further data set concerns CCCCCCCC1CCC(=O)O1. The data set can be described thus: purified protein. As to conditions: pH 8.3; 25.0 °C.
The subject of a further data set is CCCCCCCC1CCCC(=O)O1. The data set can be described thus: purified protein. The note with it: pH 8.3; 25.0 °C.
Another data set concerns O=C1CCc2ccccc2O1. The data set can be described thus: purified protein. The note with it: pH 8.3; 25.0 °C.
The subject of data set [3] is CCCCCCCC(=O)CC(=O)N[C@H]1CCOC1=O. Description: purified protein. As to conditions: pH 8.3; 25.0 °C.
Another data set concerns O=C1CCCCCO1. Description: purified protein. As to conditions: pH 8.3; 25.0 °C.
For another data set, the system named is CCCCCCCCC1CCC(=O)O1. The data set can be described thus: purified protein. As to conditions: pH 8.3; 25.0 °C.
Data set [4] relates to CC(=O)Oc1ccc([N+](=O)[O-])cc1. The data set can be described thus: purified protein. As to conditions: pH 8.0; 25.0 °C.
Data set [5] concerns CCCCCC(=O)CC(=O)NC1CCOC1=O. Description: purified protein. As to conditions: pH 8.3; 25.0 °C.
In the next data set the test system is CCCCCC1CCC(=O)O1. The data set can be described thus: purified protein. As to conditions: pH 8.3; 25.0 °C.
In a further data set the test system is O=C1CCCO1. Description: purified protein. The note with it: pH 8.3; 25.0 °C.
Data set [6] relates to CCCCCCCCCC(=O)CC(=O)N[C@H]1CCOC1=O. The data set can be described thus: purified protein. The note with it: pH 8.3; 25.0 °C.
For a further data set, the system named is CCCCC1CCCC(=O)O1. The data set can be described thus: purified protein. As to conditions: pH 8.3; 25.0 °C.
The subject of another data set is CCCCCCC1CCCC(=O)O1. The data set can be described thus: purified protein. The note with it: pH 8.3; 25.0 °C.
Another data set relates to CCCC1CCC(=O)O1. The data set can be described thus: purified protein. As to conditions: pH 8.3; 25.0 °C.
Another data set concerns CCCCCCCC(=O)NC1CCOC1=O. The data set can be described thus: purified protein. As to conditions: pH 8.3; 25.0 °C.

In the case of `CCOC(=O)CC(SP(=S)(OC)OC)C(=O)OCC` (racemic) [V, Malathion], the Km at SisLac [1] is 330 ± 54 µM.

With `CCOP(=O)(OCC)Oc1ccc([N+](=O)[O-])cc1` [I, Ethyl-Paraoxon], the Km at SisLac [2] came out at 5440 ± 873 µM.

As to `COP(=O)(OC)Oc1ccc([N+](=O)[O-])cc1` [II, Methyl-Paraoxon], the Km on SisLac [2] was found to be 1740 ± 417 µM.

For `COP(=S)(OC)Oc1ccc([N+](=O)[O-])cc1` [IV, Methyl-Parathion], the Km at SisLac [2] is 272 ± 17 µM.

Turning to “SisLac (Saccharolobus islandicus M.16.4)”, the Km is 391 ± 90 µM with CCCCCCCC1CCC(=O)O1; 124 ± 36 µM with CCCCCCCC1CCCC(=O)O1; 1122 ± 75 µM in the data set on O=C1CCc2ccccc2O1; 111 ± 18 µM in data set [3]; 367 ± 54 µM in the data set on O=C1CCCCCO1; 475 ± 83 µM with CCCCCCCCC1CCC(=O)O1. Moreover, the Km came to 124 ± 36 µM in [4]; 42 ± 7 µM in [5]; 15 ± 8 µM in the data set on CCCCCC1CCC(=O)O1; 158 ± 38 µM in the data set on O=C1CCCO1; 435 ± 123 µM in [6]; 62 ± 22 µM with CCCCC1CCCC(=O)O1. Further, the Km is 128 ± 10 µM with CCCC1CCC(=O)O1 and 677 ± 163 µM with CCCCCCCC(=O)NC1CCOC1=O. Further, the kcat/Km in the data set with CCCCCCCC1CCC(=O)O1 was 5490 M⁻¹ s⁻¹; in the data set with CCCCCCCC1CCCC(=O)O1, 89500 M⁻¹ s⁻¹; in data set [3], 96300 M⁻¹ s⁻¹; with O=C1CCCCCO1 it was 19800 M⁻¹ s⁻¹; in the data set with CCCCCCCCC1CCC(=O)O1 it was 3140 M⁻¹ s⁻¹; in [4], 1600 M⁻¹ s⁻¹. Further, the kcat/Km was 97000 M⁻¹ s⁻¹ in data set [5]; 204000 M⁻¹ s⁻¹ in the data set on CCCCCC1CCC(=O)O1; 36400 M⁻¹ s⁻¹ in the data set on O=C1CCCO1; 897 M⁻¹ s⁻¹ in [6]; 828000 M⁻¹ s⁻¹ in the data set on CCCCC1CCCC(=O)O1; more than 1.77e+06 M⁻¹ s⁻¹ with CCCCCCC1CCCC(=O)O1. Also, the kcat/Km in the data set with CCCC1CCC(=O)O1 is 46100 M⁻¹ s⁻¹; in the data set with CCCCCCCC(=O)NC1CCOC1=O it was 1050 M⁻¹ s⁻¹.
